{"sequences": {"note": "Chains of the proteins cited; added tags and fusions are not shown.", "UniProt P35348, whole entry": "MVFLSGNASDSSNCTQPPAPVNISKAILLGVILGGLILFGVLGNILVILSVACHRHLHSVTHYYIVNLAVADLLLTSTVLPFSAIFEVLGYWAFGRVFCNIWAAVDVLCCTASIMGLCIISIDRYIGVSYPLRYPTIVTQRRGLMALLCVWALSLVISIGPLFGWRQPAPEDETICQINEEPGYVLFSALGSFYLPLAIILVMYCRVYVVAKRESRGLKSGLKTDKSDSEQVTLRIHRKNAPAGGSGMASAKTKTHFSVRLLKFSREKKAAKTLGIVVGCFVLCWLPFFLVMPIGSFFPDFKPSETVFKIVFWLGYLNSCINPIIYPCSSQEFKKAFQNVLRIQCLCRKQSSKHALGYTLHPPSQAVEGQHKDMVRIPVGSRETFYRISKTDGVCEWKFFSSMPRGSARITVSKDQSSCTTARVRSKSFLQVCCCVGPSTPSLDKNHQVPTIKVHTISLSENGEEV", "UniProt P08908, whole entry": "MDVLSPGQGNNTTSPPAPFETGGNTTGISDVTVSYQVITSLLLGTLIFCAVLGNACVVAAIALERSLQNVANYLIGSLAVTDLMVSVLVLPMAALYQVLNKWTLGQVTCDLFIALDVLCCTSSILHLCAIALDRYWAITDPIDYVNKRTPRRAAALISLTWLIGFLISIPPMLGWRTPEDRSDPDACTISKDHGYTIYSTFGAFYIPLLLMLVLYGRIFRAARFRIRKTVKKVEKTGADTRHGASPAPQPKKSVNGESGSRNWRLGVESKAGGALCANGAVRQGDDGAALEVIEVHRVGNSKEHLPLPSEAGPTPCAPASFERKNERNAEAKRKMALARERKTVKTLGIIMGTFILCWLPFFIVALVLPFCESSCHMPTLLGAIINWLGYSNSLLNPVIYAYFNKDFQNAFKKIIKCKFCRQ"}, "source": "patent US9290463B2", "about": "“Radiolabeled compounds and uses thereof” (THE TRUSTEES OF COLUMBIA UNIVERSITY IN THE CITY OF NEW YORK, priority 2010, dated 2016)", "key": {"alpha1AR": {"target": "alpha1AR (Homo sapiens (Human), UniProt P35348)", "test": "NIMH-PDSP affinity screen, alpha1AR", "conditions": "selectivity ratio", "protocol": "(§1) The affinity of 18 for various biogenic amines, brain receptors, and transporters was determined through National Institute of Mental Health Psychoactive Drug Screening Program (NIMH-PDSP). Compound 18 has a Ki of 21.4±0.6 nM for alpha1AR, which is 214 times higher than Ki of 5-HT1AR. This is much better than the Ki of compound 19 for alpha1AR is 6.75 nM, which is only 45 times higher than Ki of 5-HT1AR. […] Compound 18 produced a dose-dependent increase in [^35S]GTPγS binding."}, "5-HT1AR": {"target": "5-HT1AR (Homo sapiens (Human), UniProt P08908)", "test": "[35S]GTPγS binding in membranes of CHO cells stably expressing the human 5-HT1AR", "protocol": "as §1"}}, "data": [{"molecule": "Cn1c(=O)cnn(CCCCN2CCN(c3ccccc3OCCF)CC2)c1=O", "values": [{"measurement": "Ki for alpha1AR, times higher than Ki of 5-HT1AR", "setting": "alpha1AR", "result": 214, "unit": "times"}, {"measurement": "Maximal stimulated [35S]GTPγS binding Emax", "setting": "5-HT1AR", "result": "80 % of that seen with 5-HT"}, {"measurement": "Effect on [35S]GTPγS binding", "setting": "5-HT1AR; in words", "result": "dose-dependent increase"}]}]}
